Results reported in publication PMC11084632, “Pharmacological Evaluation of Cannabinoid Receptor Modulators Using GRABeCB2.0 Sensor” (International Journal of Molecular Sciences, 2024).

Protein sequences, listed by entry. Tags and fused reporters are not part of them.
UniProt P21554, whole entry S383T, looked up: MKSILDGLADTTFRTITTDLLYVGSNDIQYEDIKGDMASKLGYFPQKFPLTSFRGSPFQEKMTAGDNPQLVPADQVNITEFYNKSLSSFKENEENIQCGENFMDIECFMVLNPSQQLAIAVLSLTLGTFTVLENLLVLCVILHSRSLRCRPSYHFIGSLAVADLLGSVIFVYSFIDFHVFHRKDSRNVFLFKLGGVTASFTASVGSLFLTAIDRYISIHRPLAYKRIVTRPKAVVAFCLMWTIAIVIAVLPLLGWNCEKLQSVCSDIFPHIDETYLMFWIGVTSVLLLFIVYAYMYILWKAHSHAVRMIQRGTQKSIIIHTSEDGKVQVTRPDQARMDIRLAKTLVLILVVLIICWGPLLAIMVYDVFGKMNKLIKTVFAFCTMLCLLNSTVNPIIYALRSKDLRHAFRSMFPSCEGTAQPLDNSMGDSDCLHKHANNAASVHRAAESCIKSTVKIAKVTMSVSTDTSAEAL

Key:
[1] = target: T1, GRABeCB2.0 sensor (Homo sapiens, UniProt P21554, S383T, form not given)
[2] = target: T1, GRABeCB2.0 sensor; remark: listed apart in the source
[3] = target: T1, GRABeCB2.0 sensor; remark: listed apart in the source

## O=C(Nc1ccc(Cl)cc1)Nc1cccc(-c2cccc(N3CCCC3)n2)c1 [PSNCBAM-1]
[1]
  Effect on GRABeCB2.0 basal fluorescence: weak inverse agonism at higher concentrations
[2]
  Effect on 2-AG-activated GRABeCB2.0 fluorescence: this behavior could be replicated
  Effect on CP55940-activated GRABeCB2.0 fluorescence: void of any concentration-dependent effects
[2]; read-out: IC50 as weak antagonists (normalized curve)
  IC50: 567 nM
[3]
  Mode of antagonism in Schild-like analysis: non-competitive antagonism; also recorded: did not significantly affect the EC50 value of CP55,940

Entries after “also recorded” stand apart in the source; their conditions may differ.
